Test results from patent US6866870B2 (priority 2002, dated 2005).
Values joined by “and” are separate entries in the source; they are usually repeats but may differ in a detail not shown here. Identical values can stand only once.

Experiments:
[1] = test system: biofilms of Leuconostoc mesenteroides
[2] = determined spectrally; alkaline pH; 24° C.; order of addition First/Second

SMILES | Colony Forming Units/cm^2 [1] | Half-life [2]
OO [H2O2, hydrogen peroxide] | 6.7 Colony Forming Units/cm^2 and 6.9 Colony Forming Units/cm^2 and 6.8 Colony Forming Units/cm^2 | –
[Na+].[O-]Cl [NaHClO3, sodium hypochlorite] | – | 221 days
